Data on 1 molecule can be found in patent US4652562A, “Quinoline derivatives and pharmaceutical compositions” (Egis Gyogyszergyar, priority 1985, dated 1987).

In this data set the test system is CFLP mice. Description: Toxicity in test animals (CFLP mice), LD50 per os. It counts as in vivo. To be noted: in words.

Consider `NC(=Nc1c([N+](=O)[O-])cnc2ccccc12)N1CCOCC1` [Example 1, N-(3-Nitro-4-quinolyl)-morpholino carboxamidine], for which the “toxicity in test animals” value is “advantageous toxicity in test animals”.
